Measurements taken from IntAct's records for PubMed 25502805.

B1: Tumor necrosis factor receptor superfamily member 5 (Homo sapiens), P25942 (parent)
chain: MVRLPLQCVLWGCLLTAVHPEPPTACREKQYLINSQCCSLCQPGQKLVSDCTEFTETECLPCGESEFLDTWNRETHCHQHKYCDPNLGLRVQQKGTSETDTICTCEEGWHCTSEACESCVLHRSCSPGFGVKQIATGVSDTICEPCPVGFFSNVSSAFEKCHPWTSCETKDLVVQQAGTNKTDVVCGPQDRLRALVVIPIIFGILFAILLVLVFIKKVAKKPTNKAPHPKQEPQEINFPDDLPGSNTAAPVQETLHGCQPVTQEDGKESRISVQERQ
partner: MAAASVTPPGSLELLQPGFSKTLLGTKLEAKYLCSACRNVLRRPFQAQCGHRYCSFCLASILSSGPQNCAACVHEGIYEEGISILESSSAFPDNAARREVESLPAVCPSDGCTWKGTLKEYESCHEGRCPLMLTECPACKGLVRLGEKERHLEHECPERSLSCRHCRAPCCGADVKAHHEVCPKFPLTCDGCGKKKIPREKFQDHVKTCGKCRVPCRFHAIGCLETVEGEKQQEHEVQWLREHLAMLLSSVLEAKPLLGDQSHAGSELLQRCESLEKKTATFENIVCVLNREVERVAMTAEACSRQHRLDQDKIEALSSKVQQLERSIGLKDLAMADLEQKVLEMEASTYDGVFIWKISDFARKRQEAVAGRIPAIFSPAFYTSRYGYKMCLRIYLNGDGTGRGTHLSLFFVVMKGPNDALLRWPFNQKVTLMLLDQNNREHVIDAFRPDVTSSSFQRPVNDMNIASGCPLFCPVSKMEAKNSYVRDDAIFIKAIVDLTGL

Variants of: B1
Conditions: with traf2_human TRAF2, Q12933

Variant | effect of a mutation on the interaction
C83R | disrupting interaction strength
